Source: patent US20160032347A1, “NOVEL METHOD AND DEVICE FOR WHOLE-CELL BACTERIAL BIO-CAPACITOR CHIP FOR DETECTING CELLULAR STRESS INDUCED BY TOXIC CHEMICALS” (Sabanci Universitesi, priority 2011, published 2016)

Test system: E. coli cells

With `OO` [H2O2, hydrogen peroxide] the “change in capacitance response” value (294 mM (1%), irrespective of exposure time (1 h, 3 h)) was “negligible change in capacitance response”, the capacitance response (588 mM (2%), 3 h exposure) was “higher capacitance responses” and the capacitance response (882 mM (3%), 3 h exposure) was “considerably reduced capacitance responses”. The “response at initial 1 h exposure (FIG. 11)” value (350 MHz) was “adaptive responses”, the “concentration toxic to cells (oxidative stress)” value (3 h exposure, 350 MHz, 882 mM = 3%) was 882 mM and the “concentration at which the capacitance response declined due to oxidative toxicity in cells” value (higher level, 882 mM = 3%) was 882 mM. For the same compound, the “concentration at which the E. coli biochip exhibited adaptive responses” value (oxidative stress, lower concentrations) was < 2%.
In the case of `[Cl-].[Na+]` [NaCl, sodium chloride], the “severity of effect on cells compared with the other model chemicals” value (350 MHz, 1 and 3 h) is reported as “not severely affected”, the “response at initial 1 h exposure (FIG. 11)” value (350 MHz) is reported as “increase in capacitance” and the “concentration above which salt stress is induced (capacitance tends to decrease)” value (3 h exposure, 342 mM = 2%) is reported as “above 342 mM”. For the same compound, the “concentrations at which cells were not affected by salt stress” value (3 h exposure, 1-2%) was 171 to 342 mM, the “concentration giving mild adaptive responses” value (initial 1 h of treatment, 0-3%) was 0 to 513 mM and the “concentration at which cells tend to experience salt stress” value (initial 1 h of treatment, 684 mM = 4%) was 684 mM. The “concentration levels by which E. coli cells were not severely affected (cells resist salt stress)” value (salt stress, 513-684 mM = 3-4%) was 513 to 684 mM.

Where two headings read alike, the source gives them in different places.
